{
  "sequences": {"note": "The chains behind the UniProt entries cited, without tags or fusion partners.", "UniProt Q07912, whole entry": "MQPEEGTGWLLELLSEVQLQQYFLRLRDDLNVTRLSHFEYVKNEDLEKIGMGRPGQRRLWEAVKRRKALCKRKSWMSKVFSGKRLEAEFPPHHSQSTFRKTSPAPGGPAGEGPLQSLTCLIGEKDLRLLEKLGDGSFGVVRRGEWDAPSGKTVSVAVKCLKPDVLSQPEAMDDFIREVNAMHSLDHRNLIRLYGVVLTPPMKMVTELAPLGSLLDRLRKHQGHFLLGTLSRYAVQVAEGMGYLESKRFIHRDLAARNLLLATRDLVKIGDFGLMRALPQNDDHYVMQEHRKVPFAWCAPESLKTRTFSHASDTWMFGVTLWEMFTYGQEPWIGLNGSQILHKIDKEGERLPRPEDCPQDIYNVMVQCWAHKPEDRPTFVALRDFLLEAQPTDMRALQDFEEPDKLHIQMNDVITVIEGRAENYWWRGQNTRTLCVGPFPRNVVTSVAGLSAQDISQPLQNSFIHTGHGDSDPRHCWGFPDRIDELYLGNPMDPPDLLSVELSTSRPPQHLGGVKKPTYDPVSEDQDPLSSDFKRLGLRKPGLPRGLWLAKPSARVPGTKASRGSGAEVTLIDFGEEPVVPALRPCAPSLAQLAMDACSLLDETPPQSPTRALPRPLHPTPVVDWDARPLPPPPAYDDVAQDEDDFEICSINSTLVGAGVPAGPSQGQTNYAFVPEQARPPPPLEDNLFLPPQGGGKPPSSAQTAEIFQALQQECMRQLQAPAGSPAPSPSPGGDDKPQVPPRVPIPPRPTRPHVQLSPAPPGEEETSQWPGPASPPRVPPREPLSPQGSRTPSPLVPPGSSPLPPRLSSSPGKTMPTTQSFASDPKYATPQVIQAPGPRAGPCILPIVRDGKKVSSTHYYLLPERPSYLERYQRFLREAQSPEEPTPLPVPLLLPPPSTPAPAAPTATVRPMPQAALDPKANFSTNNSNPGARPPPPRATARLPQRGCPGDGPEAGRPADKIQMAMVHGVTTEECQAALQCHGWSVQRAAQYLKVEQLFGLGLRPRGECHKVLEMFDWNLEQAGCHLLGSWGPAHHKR"},
  "source": "patent US20240010634A1",
  "about": "“PYRIMIDINYL SULFONAMIDES AS INHIBITORS OF ACK1/TNK2 TYROSINE KINASE” (H. LEE MOFFITT CANCER CENTER AND RESEARCH INSTITUTE, INC., priority 2020, published 2024)",
  "origin": "cited, not measured here",
  "key": {"ACK1": {"target": "ACK1 (Homo sapiens (Human), UniProt Q07912)", "settings": "read-out: ACK1 IC50 in vitro; cited from earlier work"}, "ACK1 autophosphorylation": {"tested_on": "ACK1 autophosphorylation", "settings": "read-out: IC50, inhibition of ACK1 autophosphorylation in intact cells; cited from earlier work"}},
  "data": [
    {"compound": "COC(C)(C)CCn1nc(Nc2c(C)cccc2C)c2cnc(Nc3ccccc3)nc21", "values": [
      {"measurement": "IC50", "setting": "ACK1", "value": 2, "unit": "nM"},
      {"measurement": "IC50", "setting": "ACK1 autophosphorylation", "value": 20, "unit": "nM"}
    ]}
  ]
}
